# Paper PMC11487425 (RSC Medicinal Chemistry, 2024)
# Conditions: rat liver microsomes
row,SMILES,microsomal stability in words
1,"COc1cccc2c1C(=O)c1sc3ccc(O)cc3c1-2 [4l, 2-Hydroxy-7-methoxy-6H-benzo[b]indeno[1,2-d]thiophen-6-one]",rapidly metabolized
2,"COc1ccc2c(c1)-c1c(sc3ccc(O)cc13)C2=O [4j, 2-Hydroxy-9-methoxy-6H-benzo[b]indeno[1,2-d]thiophen-6-one]",rapidly degraded to 50% of its initial amount then plateaued for the rest of the assay
